In US10562878B2, “Cycloalkylamines as monoamine reuptake inhibitors” (Sunovion Pharmaceuticals Inc., priority 2006, dated 2020) one finds IC50 data, which are given here for 16 compounds.

The chains behind the UniProt entries cited, without tags or fusion partners.
UniProt P31645, whole entry: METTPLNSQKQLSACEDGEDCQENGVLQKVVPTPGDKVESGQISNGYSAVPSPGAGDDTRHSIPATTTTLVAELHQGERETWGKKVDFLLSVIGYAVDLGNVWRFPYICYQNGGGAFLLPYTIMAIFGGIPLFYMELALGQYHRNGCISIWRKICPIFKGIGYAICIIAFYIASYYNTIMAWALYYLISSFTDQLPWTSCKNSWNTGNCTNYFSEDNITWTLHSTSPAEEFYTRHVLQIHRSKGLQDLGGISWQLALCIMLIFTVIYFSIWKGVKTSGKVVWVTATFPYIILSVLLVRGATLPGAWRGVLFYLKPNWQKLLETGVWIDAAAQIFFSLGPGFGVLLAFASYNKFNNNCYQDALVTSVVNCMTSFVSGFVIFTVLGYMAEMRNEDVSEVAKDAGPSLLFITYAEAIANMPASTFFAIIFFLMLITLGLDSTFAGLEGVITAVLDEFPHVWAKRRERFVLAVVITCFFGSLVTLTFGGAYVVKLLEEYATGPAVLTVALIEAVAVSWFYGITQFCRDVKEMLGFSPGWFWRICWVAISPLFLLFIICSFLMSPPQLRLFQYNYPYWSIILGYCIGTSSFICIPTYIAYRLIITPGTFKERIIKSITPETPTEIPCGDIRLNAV
UniProt Q01959, whole entry: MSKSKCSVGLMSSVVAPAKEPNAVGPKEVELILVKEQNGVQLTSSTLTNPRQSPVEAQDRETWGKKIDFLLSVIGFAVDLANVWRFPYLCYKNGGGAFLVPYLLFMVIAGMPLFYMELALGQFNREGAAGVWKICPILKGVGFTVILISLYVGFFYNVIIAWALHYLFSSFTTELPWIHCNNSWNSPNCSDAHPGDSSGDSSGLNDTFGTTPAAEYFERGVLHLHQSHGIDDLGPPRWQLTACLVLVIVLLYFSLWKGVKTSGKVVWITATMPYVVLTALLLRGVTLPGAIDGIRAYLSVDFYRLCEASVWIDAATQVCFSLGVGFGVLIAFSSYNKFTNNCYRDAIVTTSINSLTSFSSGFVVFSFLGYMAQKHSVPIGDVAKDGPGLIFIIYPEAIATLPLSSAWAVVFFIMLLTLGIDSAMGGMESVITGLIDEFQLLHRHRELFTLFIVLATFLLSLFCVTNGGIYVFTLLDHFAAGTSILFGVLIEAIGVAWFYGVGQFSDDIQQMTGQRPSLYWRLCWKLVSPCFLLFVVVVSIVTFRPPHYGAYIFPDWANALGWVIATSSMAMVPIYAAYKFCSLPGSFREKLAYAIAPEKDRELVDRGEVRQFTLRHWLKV
UniProt P23975, whole entry: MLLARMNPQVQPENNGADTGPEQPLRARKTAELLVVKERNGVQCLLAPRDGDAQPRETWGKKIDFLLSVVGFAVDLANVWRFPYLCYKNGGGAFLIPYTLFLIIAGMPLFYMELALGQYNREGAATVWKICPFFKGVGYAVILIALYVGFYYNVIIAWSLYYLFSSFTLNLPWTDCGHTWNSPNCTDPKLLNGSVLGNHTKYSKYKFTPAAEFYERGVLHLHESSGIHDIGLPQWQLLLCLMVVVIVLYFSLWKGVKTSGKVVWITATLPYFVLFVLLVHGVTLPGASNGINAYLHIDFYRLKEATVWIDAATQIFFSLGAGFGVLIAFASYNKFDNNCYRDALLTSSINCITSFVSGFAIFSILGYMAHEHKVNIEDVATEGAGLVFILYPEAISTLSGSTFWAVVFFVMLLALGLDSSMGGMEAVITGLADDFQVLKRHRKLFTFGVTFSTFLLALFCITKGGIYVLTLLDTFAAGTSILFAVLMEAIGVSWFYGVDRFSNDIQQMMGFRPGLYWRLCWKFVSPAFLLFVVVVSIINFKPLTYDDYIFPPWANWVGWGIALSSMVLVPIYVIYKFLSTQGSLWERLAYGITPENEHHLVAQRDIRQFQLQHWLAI

Counter-ions that a name gives are not always drawn.

In one experiment the target is human serotonin transporter (Homo sapiens (Human), UniProt P31645). As to the kind of experiment: Serotonin functional uptake assay, recombinant human transporter in HEK-293 cells. The format is cell-based. The conditions noted are these: Human serotonin transporter uptake; read-out: hSERT IC50.
With “cis-1-(1-(3,4-dichlorophenyl)-3-methoxycyclohexyl)-N-methylmethanamine [Compound 200]”, the IC50 was found to be 2050 nM.
Take “cis-1-(1-(3,4-dichlorophenyl)-3-methoxycyclohexyl)-N-methylmethanamine [Compound 196]”: the IC50 turned out to be 1440 nM.

Still in this experiment, the particulars now being: read-out: hSERT IC50.
Turning to `CNC[C@]1(c2ccc(Cl)c(Cl)c2)CCC[C@](C)(O)C1` (relative stereo) [Compound 198, cis-3-(3,4-dichlorophenyl)-1-methyl-3-((methylamino)methyl)cyclohexanol], the IC50 worked out at 2320 nM.

The target in a further experiment is human dopamine transporter (Homo sapiens (Human), UniProt Q01959). Kind of experiment: Dopamine functional uptake assay, recombinant human transporter in CHO-K1 or HEK293 cells. In kind it is cell-based. Conditions: Human dopamine transporter uptake; read-out: hDAT IC50.
Regarding “cis-1-(1-(3,4-dichlorophenyl)-3-methoxycyclohexyl)-N-methylmethanamine [Compound 200]”, the IC50 is 1100 nM.
As to “cis-3-(3,4-dichlorophenyl)-3-((dimethylamino)methyl)-1-methylcyclohexanol [Compound 199]”, the IC50 was 462 nM.
Regarding “cis-1-(1-(3,4-dichlorophenyl)-3-methoxycyclohexyl)-N-methylmethanamine [Compound 196]”, the IC50 was 911 nM.

Still in this experiment, the particulars now being: read-out: hDAT IC50.
`CC(C)C(N)C1(c2ccc(Cl)cc2)CCCCC1` (racemic) [Compound 14, 1-(1-(4-chlorophenyl)cyclohexyl)-2-methylpropan-1-amine]: the IC50 is 46 nM.

The target in a further experiment is human norepinephrine transporter (Homo sapiens (Human), UniProt P23975). Kind of experiment: Norepinephrine functional uptake assay, recombinant human transporter in HEK293 or MDCK cells. In kind it is cell-based. Conditions: hNET IC50.
As for `C[C@@H]1CCCC[C@@]1(CN(C)C)c1ccc(Cl)c(Cl)c1` (racemic) [Compound 175, (±) cis-1-(1-(3,4-dichlorophenyl)-2-methylcyclohexyl)-N,N-dimethylmethanamine hydrochloride], the IC50 was 15 nM.

The experiment is the same for the next values; noted with them: read-out: hNET IC50.
`CC(C)CC(N)C1(c2ccc(Cl)cc2)CCCCC1` (single isomer, unassigned) [21 E1, 1-(1-(4-chlorophenyl)cyclohexyl)-3-methylbutan-1-amine]: the IC50 was 7610 nM.
Regarding `CNCC1(c2ccc(Cl)c(Cl)c2)CCCC1` [Compound 88, (1-(3,4-dichlorophenyl)cyclopentyl)-N-methylmethanamine], the IC50 was 171 nM.
Take `CCC(NC)C1(c2ccc(Cl)c(Cl)c2)CCCCC1` (single isomer, unassigned) [62 E1, 1-(1-(3,4-dichlorophenyl)cyclohexyl)-N-methylpropan-1-amine]: the IC50 worked out at 414 nM.
On the same count and under the same terms, in the case of `CCC(NC)C1(c2ccc(Cl)c(Cl)c2)CCCCC1` (single isomer, unassigned) [62 E2, 1-(1-(3,4-dichlorophenyl)cyclohexyl)-N-methylpropan-1-amine] it was 121 nM.
Regarding `CN(C)CC1(c2ccc(Cl)c(Cl)c2)CCCC(F)(F)C1` (single isomer, unassigned) [206 E1, 1-(1-(3,4-dichlorophenyl)-3,3-difluorocyclohexyl)-N,N-dimethylmethanamine], the IC50 is 121 nM.
Consider `CC(C)CC(N)C1(c2ccc(Cl)cc2)CCCCC1` (single isomer, unassigned) [21 E2, 1-(1-(4-chlorophenyl)cyclohexyl)-3-methylbutan-1-amine], for which the IC50 is 6040 nM.
As for `CC(C)CC(N)C1(c2ccc(Cl)cc2)CCCCC1` (stereo not shown) [Compound 21, 1-(1-(4-chlorophenyl)cyclohexyl)-3-methylbutan-1-amine], the IC50 came out at 7190 nM.
Consider `CNCC1(c2ccc(Cl)c(Cl)c2)CCCC(F)(F)C1` (single isomer, unassigned) [205 E1, 1-(1-(3,4-dichlorophenyl)-3,3-difluorocyclohexyl)-N-methylmethanamine], for which the IC50 was determined as 999 nM.
With `CNCC1(c2ccc(Cl)c(Cl)c2)CCCC(F)(F)C1` (single isomer, unassigned) [205 E2, 1-(1-(3,4-dichlorophenyl)-3,3-difluorocyclohexyl)-N-methylmethanamine], the IC50 stood at 326 nM.
Same read-out and setting: in the case of `CC(C)C(N)C1(c2ccc(Cl)cc2)CCCCC1` (racemic) [Compound 14, 1-(1-(4-chlorophenyl)cyclohexyl)-2-methylpropan-1-amine] it was 257 nM; in that of `CSc1ccc(C2(CN(C)C)CCCCC2)cc1` [Compound 52, N,N-dimethyl-1-(1-(4-(methylthio)phenyl)cyclohexyl)methanamine], 1060 nM.
